# Binding of CDR-mutated scFvs to a peptide of the spike HR2 region

The measurements come from Li et al. 2023 (doi:10.1038/s41467-023-39022-2) through the FLAb antibody collection.

Target peptide (SARS-CoV-2 spike, HR2 region): PDVDLGDISGINAS

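The starting antibody came from a phage panning campaign against this peptide. The variants were designed computationally from a first round of random CDR variants and then made and measured. Several design methods are mixed in this list. Affinity was read by AlphaSeq, a pooled yeast mating assay with surface-displayed partners. The frequency of each diploid, read from paired DNA barcodes, reflects how well the two displayed proteins bind. The ratio of observed to expected reads was calibrated, replicate by replicate, on BCL2-family standards whose Kd was known from biolayer interferometry. Mating was done six times.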

Each scFv is VH, the linker GGGGSGGGGSGGGGS, VL, as in the parent Ab-14, and differs from it in the CDRs of the heavy chain only.
VH: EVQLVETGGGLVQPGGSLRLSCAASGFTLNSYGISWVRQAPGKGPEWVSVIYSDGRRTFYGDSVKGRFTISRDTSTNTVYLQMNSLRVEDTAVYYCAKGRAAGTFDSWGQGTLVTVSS
VL: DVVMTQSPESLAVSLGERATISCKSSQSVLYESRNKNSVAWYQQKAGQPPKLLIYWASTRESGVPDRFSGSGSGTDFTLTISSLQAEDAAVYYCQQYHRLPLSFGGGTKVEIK

Each variant's VH is given in full.
This list holds designs with at most six substitutions.
Values are apparent Kd, the geometric mean of the replicates that gave a signal; lower means stronger binding.
"nd" marks a missing value. The strain was present, yet no cells mated with the target were sequenced in any replicate, which points to weak or no binding.

With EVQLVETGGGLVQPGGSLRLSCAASGFTLNDYGISWVRQAPGKGPEWVSVIYSDGRRTWYGDSVKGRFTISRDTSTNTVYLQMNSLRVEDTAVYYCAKGRNAGTFDSWGQGTLVTVSS the result was 8.8 nM (6 of 6 replicates).
With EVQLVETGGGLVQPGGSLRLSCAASGFNLNSYGISWVRQAPGKGPEWVSVIYSDGKRTFYADSVKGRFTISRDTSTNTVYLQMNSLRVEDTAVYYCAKGRQAGTFDSWGQGTLVTVSS the result was 1.2 nM (6 of 6 replicates).
With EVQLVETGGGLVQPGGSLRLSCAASGFDLNSYGISWVRQAPGKGPEWVSVIYSDGRRTFYADSVKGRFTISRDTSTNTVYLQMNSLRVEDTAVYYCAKGRHAGTFDSWGQGTLVTVSS the result was 3.5 nM (6 of 6 replicates).
With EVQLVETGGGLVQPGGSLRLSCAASGFDLNSYGISWVRQAPGKGPEWVSVIYSDGRRTFYSDSVKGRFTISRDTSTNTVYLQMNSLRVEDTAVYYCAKGQVAGTFDSWGQGTLVTVSS the result was 450 pM (6 of 6 replicates).
With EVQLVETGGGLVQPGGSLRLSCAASGFDLNSYGISWVRQAPGKGPEWVSVIYSDGRRTFYGDSVKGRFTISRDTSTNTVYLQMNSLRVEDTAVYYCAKGKTAGTFDQWGQGTLVTVSS the result was 14 nM (6 of 6 replicates).
With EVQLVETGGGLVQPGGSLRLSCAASMFDLNSYGISWVRQAPGKGPEWVSVIYSDGRRTFYGDSVKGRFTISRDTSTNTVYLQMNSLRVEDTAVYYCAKGRNAGTFDSWGQGTLVTVSS the result was 15 nM (6 of 6 replicates).
With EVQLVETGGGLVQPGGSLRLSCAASGFGLNEYGISWVRQAPGKGPEWVSVIYSDGRRTFYGDNVKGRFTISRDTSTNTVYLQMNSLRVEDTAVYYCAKGRTAGTFDSWGQGTLVTVSS the result was 600 pM (6 of 6 replicates).
With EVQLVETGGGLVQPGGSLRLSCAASGFTLNSYGISWVRQAPGKGPEWVSVIYSDGRRTFYGDSVKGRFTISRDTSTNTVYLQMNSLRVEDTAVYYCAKGRAAGTYDYWGQGTLVTVSS the result was 63 nM (4 of 6 replicates).
With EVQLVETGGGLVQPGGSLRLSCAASGETLNEYGISWVRQAPGKGPEWVSVIYSDGRRTFYGDSVKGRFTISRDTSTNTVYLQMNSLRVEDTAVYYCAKGRTAGTFDSWGQGTLVTVSS the result was 4.2 nM (6 of 6 replicates).
With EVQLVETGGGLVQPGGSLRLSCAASGFELNSYGISWVRQAPGKGPEWVSVIYSDGRRTFYHDSVKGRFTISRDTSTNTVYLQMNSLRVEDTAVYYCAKGRVAGTFDSWGQGTLVTVSS the result was 1.3 nM (6 of 6 replicates).
With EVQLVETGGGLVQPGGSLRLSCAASGFTLNSYGISWVRQAPGKGPEWVSVIYSDGRRTFYGDSVKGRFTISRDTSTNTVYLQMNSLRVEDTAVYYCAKGSLAGTFDSWGQGTLVTVSS the result was 12 nM (6 of 6 replicates).
With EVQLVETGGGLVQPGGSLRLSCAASGFQLNSYGISWVRQAPGKGPEWVSVIYSDGRRTFYIDSVKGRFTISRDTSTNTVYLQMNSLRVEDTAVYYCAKGKAAGTFDSWGQGTLVTVSS the result was 14 nM (1 of 6 replicates).
With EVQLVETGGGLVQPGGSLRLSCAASGFNLNTYGISWVRQAPGKGPEWVSVIYSDGRRTFYGDSVKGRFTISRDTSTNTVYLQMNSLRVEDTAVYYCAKGKAAGTFDSWGQGTLVTVSS the result was 17 nM (4 of 6 replicates).
With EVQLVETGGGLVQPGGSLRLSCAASGFWLNEYGISWVRQAPGKGPEWVSVIYSDGRRTFYGDPVKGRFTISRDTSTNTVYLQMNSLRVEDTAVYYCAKGRTAGTFDSWGQGTLVTVSS the result was 45 nM (5 of 6 replicates).
With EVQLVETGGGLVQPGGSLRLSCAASGFTLENYGISWVRQAPGKGPEWVSVIYSDGRRTFYGDSVKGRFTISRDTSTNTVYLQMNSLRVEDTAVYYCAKGRAAGTFTSWGQGTLVTVSS the result was 64 nM (4 of 6 replicates).
With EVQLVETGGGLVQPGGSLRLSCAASGFTLNSYGISWVRQAPGKGPEWVSVIYSDGRRTFYQDSVKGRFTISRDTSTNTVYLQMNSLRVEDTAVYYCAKGRAAGTFDDWGQGTLVTVSS the result was 130 nM (2 of 6 replicates).
With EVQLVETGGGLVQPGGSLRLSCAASGFELNSYGISWVRQAPGKGPEWVSVIYSDGRRTFYDDSVKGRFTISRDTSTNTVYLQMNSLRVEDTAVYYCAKGEAAGTFDSWGQGTLVTVSS the result was 5.4 nM (6 of 6 replicates).
With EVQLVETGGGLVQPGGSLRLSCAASGFTLNSYGISWVRQAPGKGPEWVSVIYSDGRRTFYGDSVKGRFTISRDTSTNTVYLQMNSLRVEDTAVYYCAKTRASGTFDSWGQGTLVTVSS the result was nd (0 of 6 replicates).
With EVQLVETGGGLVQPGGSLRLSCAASGFTLNSHGVSWVRQAPGKGPEWVSVIYSDGRRTFYQDSVKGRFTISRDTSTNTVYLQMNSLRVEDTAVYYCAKGQLAGTFDSWGQGTLVTVSS the result was 100 nM (5 of 6 replicates).
With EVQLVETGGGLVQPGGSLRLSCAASGFSLNEYGISWVRQAPGKGPEWVSVIYSDGRRTFYGDSVKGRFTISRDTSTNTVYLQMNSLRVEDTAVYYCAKGREAGTFDAWGQGTLVTVSS the result was 540 pM (6 of 6 replicates).
With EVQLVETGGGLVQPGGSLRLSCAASGFWLNSYGISWVRQAPGKGPEWVSVIYSDGRRIFDGDSVKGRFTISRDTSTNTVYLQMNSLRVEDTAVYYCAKGRAAGQFDSWGQGTLVTVSS the result was nd (0 of 6 replicates).
With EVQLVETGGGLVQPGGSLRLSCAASGFTLNEYGISWVRQAPGKGPEWVSVIYSDGRRTFYADSVKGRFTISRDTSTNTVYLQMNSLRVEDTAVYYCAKGRHAGTFDSWGQGTLVTVSS the result was 1.5 nM (6 of 6 replicates).
With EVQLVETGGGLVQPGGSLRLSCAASGFTLNEYGISWVRQAPGKGPEWVSVIYSDGRRTFYGDSVKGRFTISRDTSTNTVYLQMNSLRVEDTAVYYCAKGRAAGTFDWWGQGTLVTVSS the result was 14 nM (6 of 6 replicates).
With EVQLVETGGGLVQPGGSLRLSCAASGFTLNSYWISWVRQAPGKGPEWVSVIYSDGRRTFYGDSVKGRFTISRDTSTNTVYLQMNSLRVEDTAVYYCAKGRAALTFDSWGQGTLVTVSS the result was nd (0 of 6 replicates).
With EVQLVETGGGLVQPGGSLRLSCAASGFTLESYGISWVRQAPGKGPEWVSVIYSDGRRTFYGDSVKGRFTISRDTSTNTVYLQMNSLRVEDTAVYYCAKGRARGTFISWGQGTLVTVSS the result was nd (0 of 6 replicates).
With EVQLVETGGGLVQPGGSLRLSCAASGFGLNSYGISWVRQAPGKGPEWVSVIYSDGRRTFYGDSVKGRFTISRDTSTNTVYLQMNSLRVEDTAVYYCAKGQEAGTFDSWGQGTLVTVSS the result was 5.6 nM (5 of 6 replicates).

Top 3 of the variants detected in all replicates, tightest first:

For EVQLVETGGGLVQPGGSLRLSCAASGFDLNSYGISWVRQAPGKGPEWVSVIYSDGRRTFYSDSVKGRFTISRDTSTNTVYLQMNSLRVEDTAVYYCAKGQVAGTFDSWGQGTLVTVSS, the assay gave 450 pM (6 of 6 replicates).
For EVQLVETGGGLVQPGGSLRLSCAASGFSLNEYGISWVRQAPGKGPEWVSVIYSDGRRTFYGDSVKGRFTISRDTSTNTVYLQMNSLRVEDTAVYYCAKGREAGTFDAWGQGTLVTVSS, the assay gave 540 pM (6 of 6 replicates).
For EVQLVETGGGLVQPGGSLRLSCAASGFGLNEYGISWVRQAPGKGPEWVSVIYSDGRRTFYGDNVKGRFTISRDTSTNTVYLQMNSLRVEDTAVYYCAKGRTAGTFDSWGQGTLVTVSS, the assay gave 600 pM (6 of 6 replicates).

A sequence measured in both rounds can read differently, since the two assays cover different ranges.
In the paper, a design with two or fewer of six values counts as a poor binder.
As a blank, each scFv also met three strains without target: over all heavy chain designs, 1% of these pairings were detected, typically at 120 nM and seldom below 7.0 nM.
Of ten entries with the parent sequence, four were seen in most replicates (averages 2.2 nM to 240 nM), three in one and three in none, so single entries are noisy.